Test results taken from patent US4746659A, “Diastereomers of 10-alkyl-10-deazaminopterins and process for preparing the same” (priority 1985, dated 1988).
In brackets after ≈: the same amount, converted by molar mass.

Tested on: Lactobacillus casei
Assay: Growth inhibition of Lactobacillus casei (ATCC 7469)
Assay type: cell-based
Settings: Lacticaseibacillus casei, ATCC7469, L. casei ATCC 7469; folate concentration = 1 ng/mL; read-out: Minimum Inhibitory Concentration50 for growth inhibition, L. casei

## CCC(Cc1cnc2nc(N)nc(N)c2n1)c1ccc(C(=O)N[C@@H](CCC(=O)O)C(=O)O)cc1 (single isomer, unassigned) [l, L-10-ethyl, l,L-10-ethyl-10-deazaminopterin]
  IC50: 0.23 ng/mL (≈ 0.492 nM)

## CCC(Cc1cnc2nc(N)nc(N)c2n1)c1ccc(C(=O)N[C@@H](CCC(=O)O)C(=O)O)cc1 (stereo partly drawn) [d, L-10-ethyl, d,L-10-ethyl-10-deazaminopterin]
  IC50: 0.29 ng/mL (≈ 0.62 nM)
